From PMC11184559, “Identification and Validation of Compounds Targeting Leishmania major Leucyl-Aminopeptidase M17” (ACS Infectious Diseases, 2024)

Assay: in vitro
Settings: human

Structure (SMILES)	CC50 at 48 h [µM]
COc1ccc(Cc2c(N)nc(-c3ccccn3)nc2N)cc1 [DDD00057570]	> 100
O=C(c1cccs1)N(CCCn1ccnc1)c1nc2ccccc2s1 [DDD00097924]	> 100
